Experimental data reported in ChEMBL document CHEMBL4402585 (J Med Chem, 2020).
pIC50: −log10 of the molar value.

Legend:
[1] = target: T1, Bromodomain-containing protein 4 (Homo sapiens, UniProt O60885); assay: (§1) Inhibition of SGRG-K(Ac)-GG-K(Ac)-GLG-K(Ac)-GGA-K(Ac)-RHRKVGG-K-Biotin binding to N-terminal His6-tagged BRD4 bromodomain 2 (344 to 455 residues) (unknown origin) expressed in Escherichia coli BL21 (DE3) preincubated for 15 mins followed by biotin-labeled H4 peptide addition and measured after 10 mins by Alphascreen assay
[2] = target: T1, Bromodomain-containing protein 4; assay: as §1, with “1 (49” for “2 (344”, “170” for “455”

pIC50 [1]: 7.59
pIC50 [2]: 7.82
SMILES: Cc1cc(-c2cc(NS(C)(=O)=O)ccc2Oc2ccccc2)n2cc[nH]c(=O)c12
